Columns and labels:
[1] = test system: HCC-1954 trastuzumab-resistant Her2-positive xenograft tumors; assay: In vivo efficacy in HCC-1954 tumor xenograft mice; design: species or system immunodeficient nude mice (Balb/cAnNRj-Foxn1nu-nu); details: 10 mg/kg i.v. QWx4, six mice/group
Source text: In vivo anti-tumor efficacy of ADC of trastuzumab and maleimidoacetyl-β-Ala-Val-Ser(Glc)-PAB-MMAU, DAR=8, prepared and maleimide-stabilized as described above (MMAU-ADC) was compared to trastuzumab. HCC-1954 cancer cells were obtained from the ATCC (USA) and cultured according to the manufacturer's instructions to study efficacy of antibody-drug conjugates in trastuzumab-resistant Her2-positive xenograft tumors in immunodeficient nude mice (Balb/cAnNRj-Foxn1nu-nu). […] No potential signs of toxicity were recorded. […] Tumor growth was followed by palpation. […] Unconjugated antibody (trastuzumab: Herceptin, Roche) was used in this study as the control treatment.

[2] = Maleimide conjugate de-conjugation in the presence of oxidized glutathione; assay type: physicochemical; details: 5 mM oxidized glutathione, 50 mM HEPES pH 7.4, 37° C., 10-day experiment
Description: Transfer of the linker-payload from the ADC to glutathione was monitored by MALDI-TOF MS at 0, 1, 2, 3, 7 and 10 days. Cysteamine-linker-payload was made for use as an internal standard by incubating MA-Ac-β-Ala-Val-Ser(O-Glc)-PAB-MMAU with an excess of cysteamine for two hours at room temperature, after which the formation of the correct product was verified by MALDI-TOF MS. The timepoint samples (á 5 μL) were purified with miniaturized Poros R2 columns together with the internal standard, same amount of standard molecule in each analysis. The samples were eluted onto target plate into two spots. DHB was used as a matrix. The averages of the corresponding peaks of internal standard and sample in the two spots were calculated at the flowing m/z values: cysteamine-AuM (internal standard, maleimide not hydrolyzed) [M+H]^+ 1676.9, [M+Na]^+ 1698.9, [M+2Na—H]^+1720.9; glutathione-AuMc [M+H]^+ 1892.1, [M+Na]^+ 1914.1, [M+2Na—H]^+1936.1; glutathione-AuM (hydrolyzed maleimide) [M+H]^+ 1925.1, [M+Na]^+ 1947.1, [M+2Na—H]^+1969.1. The corresponding peak intensities were summed, and the ratios of linker-associated signals and the internal standard were calculated.

**Q.** For “MMAU-ADC: ADC of trastuzumab and maleimidoacetyl-β-Ala-Val-Ser(Glc)-PAB-MMAU, DAR=8”, which “mice with tumors shrinked without regrowth” value ([1]; 61 days treatment and follow-up) is on record?
**A.** 6/6

**Q.** Which “de-conjugation rate compared to TRAuM” value [2] does the source give for “TRAuMc: trastuzumab conjugated with MA-caproyl-Val-Ser(β-Glc)-PAB-MMAU (AuMc), DAR 7.9” here?
**A.** 10 fold

**Q.** For “trastuzumab: unconjugated antibody (trastuzumab: Herceptin, Roche), control treatment [reference compound]”, which average tumor size ([1]; during 61 day treatment and follow-up) is on record?
**A.** over 500 mm^3

Reference: US20250161478A1, “LINKER PAYLOADS AND CONJUGATES THEREOF” (priority 2021, published 2025)
